Sequences of proteins named here, by UniProt entry; tags and fusion partners are left off. Residues count along the entry.
UniProt P20272, whole entry: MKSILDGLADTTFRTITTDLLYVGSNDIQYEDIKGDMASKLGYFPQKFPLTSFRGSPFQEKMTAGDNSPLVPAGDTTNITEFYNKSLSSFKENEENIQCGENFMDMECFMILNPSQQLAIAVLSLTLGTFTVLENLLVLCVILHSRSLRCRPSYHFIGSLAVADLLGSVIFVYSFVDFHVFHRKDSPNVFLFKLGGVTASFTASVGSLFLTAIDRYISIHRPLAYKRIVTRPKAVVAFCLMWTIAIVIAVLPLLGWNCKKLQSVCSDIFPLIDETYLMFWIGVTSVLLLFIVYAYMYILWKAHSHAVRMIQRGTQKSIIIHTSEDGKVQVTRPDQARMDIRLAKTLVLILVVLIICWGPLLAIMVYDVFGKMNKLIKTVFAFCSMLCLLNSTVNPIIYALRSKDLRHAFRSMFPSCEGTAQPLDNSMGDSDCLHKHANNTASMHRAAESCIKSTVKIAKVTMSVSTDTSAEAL
UniProt P20272, 1-464 limits assumed: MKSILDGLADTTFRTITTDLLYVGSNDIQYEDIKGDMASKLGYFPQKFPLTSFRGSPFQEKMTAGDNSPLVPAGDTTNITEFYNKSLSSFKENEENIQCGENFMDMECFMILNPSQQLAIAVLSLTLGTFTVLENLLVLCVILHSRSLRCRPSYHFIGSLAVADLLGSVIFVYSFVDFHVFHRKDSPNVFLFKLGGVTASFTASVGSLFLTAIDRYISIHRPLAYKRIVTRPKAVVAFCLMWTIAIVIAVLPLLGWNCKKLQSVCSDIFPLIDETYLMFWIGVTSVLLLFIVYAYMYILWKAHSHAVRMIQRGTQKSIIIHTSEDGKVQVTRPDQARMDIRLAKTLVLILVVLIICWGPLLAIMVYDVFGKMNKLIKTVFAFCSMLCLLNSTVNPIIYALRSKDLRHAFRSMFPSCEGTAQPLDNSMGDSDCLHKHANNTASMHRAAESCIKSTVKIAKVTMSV

In US20050095674A1, “Cannabinoid receptor interacting proteins and methods of use” (priority 2003, published 2005):

What was measured:
[1] = biological target: T1, CB1 cannabinoid receptors (Rattus norvegicus, UniProt P20272); test: GIRK currents in cerebellar granule neurons, patch clamp, cannabinoid agonists; type: cell-based; conditions: 1 μM; step from -60 to -100 mV; 30 mM KCl
T1 construct: Cerebellar granule neurons express endogenous CB1 cannabinoid receptors; endogenous in cells; host or cells: primary rat cerebellar granule neurons

[2] = biological target: T2, CB1-464 truncated receptor (Rattus norvegicus, UniProt P20272); test: Whole-cell patch clamp of Ca2+ currents in SCG neurons expressing the CB1-464 truncated receptor; type: cell-based; conditions: CB1-464 versus wild type CB1
T2 construct: expressed in transfected cells

Cc1c(C(=O)c2cccc3ccccc23)c2cccc3c2n1[C@H](CN1CCOCC1)CO3 [WIN 55,212-2]
activation of GIRK currents [1]: GIRK currents were activated | agonist effect on Ca2+ current, truncated receptor compared to wild type CB1 receptor [2]: showed a trend to increase that was close to significance
